# Results published in patent US8263108B2, “Zero-order prolonged release coaxial implants” (Durect Corporation, priority 2001, dated 2012).
# Experiment: In vitro dissolution of naltrexone or fentanyl coaxial PCL implants
# Details: PBS pH 7.4, 37° C.
smiles,measurement,setting,value
O=C1CC[C@@]2(O)[C@H]3Cc4ccc(O)c5c4[C@@]2(CCN3CC2CC2)[C@H]1O5,effect of membrane thickness on release of naltrexone base from coaxial implant,"PCL coaxial implants, 10 or 30 wt % core, different ro:ri, FIG. 2","The thicker the polymer membrane, the slower the release"
same,"release profile, highest core loading","implants having a ro:ri of 1.1, highest core loading, FIG. 3",zero-order release profile can be maintained for a longer duration
same,"release profile, lower loaded implants","implants having a ro:ri of 1.1, lower core loading, FIG. 3",gradual decline in the rate of NTX release
